This assay has as its target Adenosine receptor A1 (Homo sapiens, UniProt P30542). The assay is described as follows: Displacement of [3H]DPCPX from A1 adenosine receptor (unknown origin) expressed in CHO cell membrane incubated for 60 mins at room temperature by NXT microplate scintillation counter analysis. Type of assay: cell membranes. In general terms: In a radioligand displacement assay an active substance lowers the binding of a labelled ligand.

By UniProt entry, the sequences of proteins in these tests, tags left out.
UniProt P30542, whole entry: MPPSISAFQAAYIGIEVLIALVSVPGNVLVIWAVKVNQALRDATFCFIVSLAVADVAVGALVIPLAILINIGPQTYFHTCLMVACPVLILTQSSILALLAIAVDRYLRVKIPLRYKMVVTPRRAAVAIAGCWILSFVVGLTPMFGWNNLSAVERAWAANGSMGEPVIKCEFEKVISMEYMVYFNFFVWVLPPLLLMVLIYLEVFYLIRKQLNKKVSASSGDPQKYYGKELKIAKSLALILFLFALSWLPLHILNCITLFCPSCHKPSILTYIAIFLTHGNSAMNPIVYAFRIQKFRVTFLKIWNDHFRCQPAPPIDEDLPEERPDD

Regarding `N#Cc1c(-c2ccccc2)nc(NC(=O)C2CCCC2)nc1-c1ccc2c(c1)OCO2`, the Ki (commonly the dissociation constant of the complex between target and ligand, obtained from inhibition or displacement) stood at 1.2 nM.

The values above are taken from ChEMBL document CHEMBL5042528, “Optimization of 2-Amino-4,6-diarylpyrimidine-5-carbonitriles as Potent and Selective A1 Antagonists” (J Med Chem, 2022).
